Measurements reported in patent US7767789B2, “Truncated proteins as cancer markers” (University Hopitals of Cleveland, priority 2005, dated 2010).

Experiments:
[1] = biological target: T1, P2X7 receptor (CaSki cells) (Homo sapiens, UniProt Q99572); assay: Cytosolic calcium (fura-2) in CaSki cells attached on filters; assay type: cell-based; set-up: human cervical epithelial cells expressing endogenous P2X7 receptor protein; endogenous in cells; host or cells: CaSki (ATCC); conditions: pretreatment, KN-62 100 nM 15 min before BzATP
T1 sequence (Q99572 1-595): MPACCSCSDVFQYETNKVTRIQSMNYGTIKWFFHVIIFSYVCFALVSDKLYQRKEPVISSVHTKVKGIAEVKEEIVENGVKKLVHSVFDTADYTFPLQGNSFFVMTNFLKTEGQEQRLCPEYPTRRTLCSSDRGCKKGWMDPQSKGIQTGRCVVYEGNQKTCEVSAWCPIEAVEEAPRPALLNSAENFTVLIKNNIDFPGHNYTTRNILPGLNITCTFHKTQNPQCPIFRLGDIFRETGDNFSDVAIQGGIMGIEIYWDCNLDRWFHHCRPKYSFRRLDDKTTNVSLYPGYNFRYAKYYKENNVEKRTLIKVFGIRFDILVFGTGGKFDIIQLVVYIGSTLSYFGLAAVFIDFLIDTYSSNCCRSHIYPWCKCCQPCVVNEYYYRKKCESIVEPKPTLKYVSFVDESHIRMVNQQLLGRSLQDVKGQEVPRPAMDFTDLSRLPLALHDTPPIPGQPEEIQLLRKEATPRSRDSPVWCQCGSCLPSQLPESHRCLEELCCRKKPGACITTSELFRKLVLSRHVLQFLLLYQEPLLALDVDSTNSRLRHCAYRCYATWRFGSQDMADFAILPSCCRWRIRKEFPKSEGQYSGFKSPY

[2] = tested on: P2X7 receptor (CaSki cells); assay: Western immunoblot of cellular expression of P2X7 receptor forms in CaSki cells; assay type: cell-based, human
Method: Gels were transferred onto Immobilon membrane (Millipore) at 200 V for 1.5 h, membranes were blocked in 5% milk, and receptor polypeptides were visualized using 1.5 μg/ml rabbit anti-P2X antibody at 4° C. overnight. Membranes were washed three times in PBS and fluorescent stained for 1 minute using an enhanced chemiluminescence kit of anti-rabbit peroxidase-conjugated secondary antibody (Santa Cruz Biotechnology, Santa Cruz, Calif.). For protein deglycosylation, 20 μg total lysate proteins containing 1% SDS was denatured by heating for 5 minutes at 100° C. The mixture was incubated overnight at room temperature after addition of U fresh N-glycosidase F (GlycoTech, Rockville, Md.) in 20 mM Tris-HCl, pH 7.5, containing 1 mM EDTA and 50 mM NaCl. Samples were analyzed by Western blot as described above.

[3] = biological target: T1, P2X7 receptor (CaSki cells); assay: Ethidium bromide influx (pore formation) in CaSki cells attached on filters; assay type: cell-based; set-up: human cervical epithelial cells expressing endogenous P2X7 receptor protein; endogenous in cells; host or cells: CaSki (ATCC); conditions: pretreatment
Method: The method of fluorescence experiments of attached cells was described. Gorodeski et al., “A novel fluorescence chamber for the determination of volume changes in human CaSki cell cultures attached on filters” Cell Biochem Biophys 29:307-332 (1998). Changes in cytosolic calcium (Cai) were determined in fura-2 loaded cells. For experiments with the nuclear stain Ethidium Bromide (MW 394 Da), the agent was added to the perfusing solutions from a concentrated (100×) stock at a final concentration of 5 μM. Upon influx into cells, the dye binds to nuclear chromatin and elicits specific fluorescence. Changes in fluorescence were measured on-line at the 518/605 um wavelengths (excitation/emission). […]
For measurements of cytosolic calcium, cells on filters were incubated with 7 μM fura-2/acetoxymethyl ester plus 0.25% pluronic F12. Measurements of fluorescence were conducted in a custom-designed fluorescence chamber. […] Cells were illuminated over the apical surface, and the intensity of the emitted light from the apical surface was measured. Agents were added to the luminal and subluminal solutions, and changes in cytosolic calcium were determined by switching the excitation filters to record the maximal (340/510 nm excitation/emission) and minimal (380/510 nm) fluorescence. […] Upon influx into cells, the dye binds to nuclear chromatin and elicits specific fluorescence. […]

CNC[C@H](O)c1ccc(O)c(O)c1 [epinephrine]
modulation of BzATP-induced increase in cytosolic calcium [1]: attenuated | levels of the P2X7 receptor forms ([2]; Day-2 CaSki cells): decreased the 65-kDa form | levels of the P2X7 receptor forms ([2]; Day-6 CaSki cells): decreased the 85-kDa and 65-kDa forms and increased the 18-kDa form | modulation of BzATP-induced influx of ethidium bromide [3]: attenuated
